Values quoted from earlier work, collected in patent publication US11975105B2 (EMPROS PHARMA AB, priority 2014, dated 2024).
Where two headings read alike, the source gives them in different places.

Details: cited from earlier work

C[C@H]1O[C@H](O[C@H]2[C@H](O)[C@@H](O)[C@@H](O[C@H]3[C@H](O)[C@@H](O)C(O)O[C@@H]3CO)O[C@@H]2CO)[C@H](O)[C@@H](O)[C@@H]1N[C@H]1C=C(CO)[C@@H](O)[C@H](O)[C@H]1O (stereo partly drawn) [acarbose, O-4,6-Dideoxy-4-[[(1 S,4R,5S,6S)-4,5,6-trihydroxy-3-(hydroxymethyl)cyclohex-2-enyl]amino]-α-D-glucopyranosyl-(1→4)-O-α-D-gluco-pyranosyl-(1→4)-D-glucopyranose]
fraction of the dose absorbed (in vivo, po): < 5% | fraction of the dose absorbed (oral administration): less than 5%
